Literature values in article PMC9318694 (Molecules, 2022).

Protein sequences, listed by entry. Tags and fused reporters are not part of them. Lines headed by an entry give the natural chain unless they say otherwise; changes in a name come on top.
UniProt P14416, whole entry: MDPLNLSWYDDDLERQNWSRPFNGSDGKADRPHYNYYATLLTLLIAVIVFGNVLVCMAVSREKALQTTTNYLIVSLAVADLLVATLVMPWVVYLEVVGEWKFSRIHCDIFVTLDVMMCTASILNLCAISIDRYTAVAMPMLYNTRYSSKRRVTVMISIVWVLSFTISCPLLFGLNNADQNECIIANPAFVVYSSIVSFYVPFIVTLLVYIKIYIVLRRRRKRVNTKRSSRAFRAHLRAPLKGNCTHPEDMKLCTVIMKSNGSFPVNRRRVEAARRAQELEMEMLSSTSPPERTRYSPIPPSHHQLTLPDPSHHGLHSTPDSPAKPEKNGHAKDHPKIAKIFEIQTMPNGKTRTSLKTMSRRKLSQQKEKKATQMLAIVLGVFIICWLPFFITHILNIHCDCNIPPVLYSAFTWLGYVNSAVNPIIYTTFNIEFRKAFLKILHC

Biological target: D2R (Homo sapiens, UniProt P14416)
Settings: cited from earlier work

Row | SMILES | Ki (Table S1, data set of actives, radio-ligand binding assays, ref ChEMBL, [50]-[70], read-out: KI) | Ki
1 | O=c1[nH]c2ccc(OCCCCN3CCC(c4cccc(Cl)c4Cl)CC3)cc2[nH]1 [SC4, 5-(4-(4-(2,3-dichlorophenyl)piperidin-1-yl)butoxy)-1,3-dihydro-2H-benzo[d]imidazol-2-one] | 11 nM | 
2 | CCCN(CCC)C1CCc2c(O)cccc2C1 (centres unmarked) [SC18, 5-OH-DPAT] |  | 58.8 nM

Where two headings read alike, the source gives them in different places.
